System: rat anti-collagen IgG1 antibodies
Assay: CIA model: rat anti-collagen IgG1 antibodies in serum at day 21
Format: in vivo, Lewis rat
Conditions: day 21 serum, reference group (Dexamethasone or GSK620), individual animals

## C[C@@H]1C[C@H]2[C@@H]3CCC4=CC(=O)C=C[C@]4(C)[C@@]3(F)[C@@H](O)C[C@]2(C)[C@@]1(O)C(=O)CO [dexamethasone]
  Final Rat Anti-Collagen IgG1 Antibody Con.: 11736.83 units/ml

From patent publication US20260000642A1 (Tay Therapeutics Limited, priority 2022, published 2026)
